Results as given in patent publication US12427146B2, “C-terminal SRC kinase inhibitors” (INVENTISBIO CO., LTD., priority 2018, dated 2025).

The chains behind the UniProt entries cited, without tags or fusion partners.
UniProt P06239, whole entry: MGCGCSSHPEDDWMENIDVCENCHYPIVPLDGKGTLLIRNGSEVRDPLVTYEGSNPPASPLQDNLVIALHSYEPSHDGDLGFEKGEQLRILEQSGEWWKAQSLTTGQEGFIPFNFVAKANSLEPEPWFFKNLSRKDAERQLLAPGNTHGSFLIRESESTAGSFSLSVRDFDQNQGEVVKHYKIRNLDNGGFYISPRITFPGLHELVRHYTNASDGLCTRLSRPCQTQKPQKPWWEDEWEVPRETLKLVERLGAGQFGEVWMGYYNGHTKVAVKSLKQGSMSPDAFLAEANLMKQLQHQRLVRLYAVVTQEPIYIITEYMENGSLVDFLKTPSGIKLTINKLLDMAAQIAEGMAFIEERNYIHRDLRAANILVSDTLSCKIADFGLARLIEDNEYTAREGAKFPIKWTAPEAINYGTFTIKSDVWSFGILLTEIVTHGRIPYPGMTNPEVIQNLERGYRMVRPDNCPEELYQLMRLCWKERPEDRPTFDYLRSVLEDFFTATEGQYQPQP
UniProt P41240, whole entry: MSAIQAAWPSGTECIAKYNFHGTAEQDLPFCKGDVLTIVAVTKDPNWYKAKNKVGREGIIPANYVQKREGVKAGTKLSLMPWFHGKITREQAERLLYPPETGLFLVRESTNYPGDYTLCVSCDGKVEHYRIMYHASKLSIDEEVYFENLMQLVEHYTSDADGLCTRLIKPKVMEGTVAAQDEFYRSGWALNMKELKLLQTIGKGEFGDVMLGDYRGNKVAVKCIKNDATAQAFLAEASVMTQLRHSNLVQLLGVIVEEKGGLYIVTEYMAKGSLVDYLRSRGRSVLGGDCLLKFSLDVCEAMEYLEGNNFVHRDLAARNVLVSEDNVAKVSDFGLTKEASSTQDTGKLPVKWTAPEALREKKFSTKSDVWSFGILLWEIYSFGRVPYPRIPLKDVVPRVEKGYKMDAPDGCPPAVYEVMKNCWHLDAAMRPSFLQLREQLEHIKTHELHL

Columns and labels:
LCK protein = LCK protein (Homo sapiens (Human), UniProt P06239); test: LCK Inhibition Assay; details: read-out: LCK IC50
Protocol: Test compound was dissolved in DMSO at 10 mM. 45 uL of compound was transfer into a 384-well compound source plate (LABCYTE cat #P-05525) and serially diluted at 1:3 ratio to create a 11-point dilutions. The same volume of DMSO was adopted as high control. 20 nL of these compounds DMSO dilutes were dispensed into a new 384-well assay plate by Echo 550. LCK protein (0.50 nM, Cama Biosciences, cat #08-170), florescent labeled substrate FLPeptide4 (2 μM, PerkinElmer, cat #760348) was prepared in kinase assay buffer (50 mM HEPES (pH 7.5), 10 mM MgCl2, 0.01% Brij-35, 2 mM DTT and 0.005 mg/ml BSA). 15 uL of kinase assay buffer containing LCK protein and substrate was transferred to assay plate and incubate at RT for 30 minutes. Kinase assay buffer supplemented with substrate peptides was employed as low control to monitor the background. 400 μM ATP was prepared in kinase assay buffer and 5 μL of ATP solution was added to each well to start the reaction. The assay plate was incubated at 25° C. for 90 minutes and the reaction was stopped by adding 40 μL of 0.5 M EDTA.
Phosphorylated fluorescent-tagged peptides were differentiated from non-phosphorylated peptides by separating using Caliper EZ Reader II and the detection was directly converted to conversion ratio. […]

CSK protein = CSK protein (Homo sapiens (Human), UniProt P41240); test: CSK Inhibition Assay; details: read-out: CSK IC50

IC50 (LCK protein): > 1000 nM
IC50 (CSK protein): 15 nM
Structure (SMILES): Cc1ccc(F)c(S(=O)(=O)Nc2cccc(-c3nc(-c4cncc(F)c4)sc3-c3ccnc(NC(C)C)n3)c2F)c1F
